Source: patent US12421210B2, “Fused bicyclic heterocycles as therapeutic agents” (NEW YORK UNIVERSITY, priority 2018, dated 2025)

By UniProt entry, the sequences of proteins in these tests, tags left out.
UniProt P43490, whole entry: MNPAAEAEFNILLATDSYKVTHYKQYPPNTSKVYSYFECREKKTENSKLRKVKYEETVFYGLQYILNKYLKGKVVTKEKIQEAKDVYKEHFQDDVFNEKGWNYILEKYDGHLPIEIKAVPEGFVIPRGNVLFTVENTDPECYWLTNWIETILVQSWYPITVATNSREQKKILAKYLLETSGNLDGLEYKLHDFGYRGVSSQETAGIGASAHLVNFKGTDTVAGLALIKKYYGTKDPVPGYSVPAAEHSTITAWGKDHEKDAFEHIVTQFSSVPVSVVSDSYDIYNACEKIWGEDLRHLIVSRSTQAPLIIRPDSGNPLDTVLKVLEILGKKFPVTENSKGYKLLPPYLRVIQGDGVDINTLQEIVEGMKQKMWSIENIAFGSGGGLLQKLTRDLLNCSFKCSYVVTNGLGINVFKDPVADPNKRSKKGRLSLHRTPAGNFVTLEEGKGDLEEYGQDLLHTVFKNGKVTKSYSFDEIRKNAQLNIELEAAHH

Target: human NAMPT enzyme (His-hNAMPT) (Homo sapiens (Human), UniProt P43490)
Assay: NAMPT enzymatic inhibition assay (fluorescence, NADH product)
Details: read-out: NAMPT IC50 (μM) [HDB]

Work on `O=C(/C=C/c1cccnc1)NCCC1C2CN(c3ccccc3)C(=O)C12` (single isomer, unassigned) yielded an IC50 of 0.01 to 0.49 µM.
